Results on one molecule are retold here after patent US20070021415A1, “Pharmaceutical composition for the prevention or treatment of cerebral oedemas” (priority 2005, published 2007).

The subject of data set [1] is neurological index disrupted by triethyl tin in the rat. The note with it: in vivo, 50 mg/kg/day.
The test system of data set [2] is ambulatory activity disrupted by triethyl tin in the rat. The note with it: in vivo.

The structures appear in SMILES notation. Several values for one entry are separate records, joined by “and”; a condition that tells them apart may be missing. Identical values can stand only once. Like-named read-outs stand apart in the source and are kept apart here.

Regarding `CC1(c2ccccc2)OC(N)=Nc2ccc(Cl)cc21` (stereo not shown) [desethyl-etifoxine, 2-amino-6-chloro-4-methyl-4-phenyl-4H-[3,1]benzoxazine], in data set [1], the “behavioural sign (neurological index, in words)” value was “does not lead to any behavioural sign”. For the same molecule, the “Neurological index (means ± s.e.m.)” value in data set [1] (male, Wistar, po) is 0. For the same molecule, in data set [2], the “TOTAL […] (mean ± s.e.m.)” value was 2923 ± 210 arbitrary unit and 2053 ± 256 arbitrary unit; the “VERTICAL […] (mean ± s.e.m.)” value was 328 ± 47 arbitrary unit and 295 ± 64 arbitrary unit; the “[…] (mean ± s.e.m.)” value is 2156 ± 182 arbitrary unit and 1382 ± 222 arbitrary unit; the “effect of TET on the ambulatory activities (in words)” value is reported as “suppresses the effect of TET completely”. In addition, the “effect on the ambulatory activities (in words)” value in data set [2] (50 mg/kg/day) is on record as “does not lead to any significant effect on the ambulatory activities”. In addition, in data set [2] (po, 50 mg/kg/day), the “TOTAL […] (mean ± s.e.m.)” value is recorded as 2725 ± 364 arbitrary unit, the “VERTICAL […] (mean ± s.e.m.)” value is given as 327 ± 57 arbitrary unit and the “[…] (mean ± s.e.m.)” value came to 2065 ± 298 arbitrary unit. In data set [2] (male, Wistar, po, 50 mg/kg/day), the “TOTAL […] (mean ± s.e.m.)” value stood at 2887 ± 423 arbitrary unit, the “VERTICAL […] (mean ± s.e.m.)” value was found to be 475 ± 96 arbitrary unit and the “[…] (mean ± s.e.m.)” value is on record as 2195 ± 355 arbitrary unit.
